SMILES strings stand for the structures. This is a selection; strong and weak results do not stand in their true shares. The source made the active and inactive calls.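 How the source made its calls: active means inhibition above the screen-wide average of all tested compounds plus 3 SD (cut at about 25% in these data); inactive means the rest.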

Protein sequences, listed by entry. Tags and fused reporters are not part of them.
UniProt Q15102, whole entry: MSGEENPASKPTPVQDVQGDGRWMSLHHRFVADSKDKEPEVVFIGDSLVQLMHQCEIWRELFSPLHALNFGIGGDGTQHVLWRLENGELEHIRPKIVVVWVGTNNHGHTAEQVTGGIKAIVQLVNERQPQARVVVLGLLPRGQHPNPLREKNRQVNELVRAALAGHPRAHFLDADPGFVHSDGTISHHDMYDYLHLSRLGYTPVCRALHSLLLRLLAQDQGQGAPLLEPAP

The assay deals with Platelet-activating factor acetylhydrolase IB subunit alpha1 (Homo sapiens) (UniProt Q15102). The experiment in a line: inhibition of PAF acetylhydrolase 1B subunit 3 – biochemical, fluorescence polarization, human, primary screen (AID 492972).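 Further: 0% = enzyme with DMSO only and 100% = wells lacking PAFAH1B3 protein.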 As to conditions: recombinant PAFAH1B3, FP-rhodamine probe, at 3.39 µM, hits give high values.
As for `CCOC(=O)c1ccc(NP(C)(=O)Oc2ccc(OC)cc2)cc1` (stereo not given), the inhibition was inactive: 10.2%.
The same measure for `CCOP(C)(=S)SCC(=O)NC(C)C(=O)O` (stereo not given): inactive: -5.08%; for `CP(=O)(Nc1ccccn1)Oc1ccc(Cl)cc1` (stereo not given): inactive: 5.6%; for `Cc1cccc(C)c1OP(C)(=O)Nc1ccc(SC(F)(F)F)cc1` (stereo not given): inactive: 1.83%.
For the molecule `CP(=O)(Oc1ccccc1)OC(c1ccccc1)C(F)(F)F` (stereo not given), the inhibition was inactive: 3.13%.
`CP(=O)(NC(=O)Nc1ccccc1)Oc1ccccc1` (stereo not given): the inhibition was inactive: 22.8%.
Take `CCc1ccc(OP(C)(=O)N2CCN(c3ccc([N+](=O)[O-])cc3)CC2)cc1` (stereo not given): the inhibition was inactive: 4.92%.
In the case of `Cc1cc(C)cc(OP(C)(=O)Nc2ccc(SC(F)(F)F)cc2)c1` (stereo not given), the inhibition was inactive: -3.74%.
Take `CP(=S)(Nn1cnnc1)Oc1ccccc1` (stereo not given): the inhibition is inactive: -0.65%.
For the molecule `CP(=O)(Nc1ccccc1Br)Oc1ccccc1` (stereo not given), the inhibition is inactive: 9.02%.
As for `COc1ccccc1OP(C)(=O)Nc1ccccc1` (stereo not given), the inhibition was inactive: -4.89%.
The value for `COc1ccccc1OP(C)(=O)Nc1ccc(C)cc1` (stereo not given) was inactive: 9.73%.
With `Cc1ccc(NP(C)(=O)Oc2ccccc2)c(C)c1` (stereo not given), the inhibition was inactive: 1.25%.
The value for `CCOC(=O)c1ccc(NP(C)(=O)Oc2ccccc2)cc1` (stereo not given) was inactive: 7.67%.
With `Cc1cc(C)cc(OP(C)(N)=O)c1` (stereo not given), the inhibition is inactive: -5.01%.
The same measure for `COc1ccccc1OP(C)(=O)Nc1cc(Cl)ccc1C` (stereo not given): inactive: 2.44%; for `COc1ccc(OP(C)(=O)Nc2cccc(F)c2)cc1` (stereo not given): inactive: 2.38%.
With `O=[N+]([O-])c1cc([N+](=O)[O-])c(Nc2cccnc2)c([N+](=O)[O-])c1`, the inhibition is inactive: 6.67%.
On to `O=[N+]([O-])c1ccc2c(c1)C=Nc1ccccc1O2`, for which the inhibition is inactive: -5.64%.
As for `CC(C)(C)c1ccc(OP(C)(=O)Nc2ccc(SC(F)(F)F)cc2)cc1` (stereo not given), the inhibition is inactive: 4.15%.
As for `Cc1cccc(C)c1OP(C)(N)=O` (stereo not given), the inhibition was inactive: 5.08%.
Regarding `CCN(CC)CCCOC(=O)C(O)(c1ccccc1)c1ccccc1`, the inhibition was inactive: 6.22%.
The value for `Cc1ccc(C)c(NP(C)(=O)Oc2ccccc2)c1` (stereo not given) was inactive: 2.14%.
Turning to `Cc1cc(C)cc(OP(C)(=O)Nc2ccccn2)c1` (stereo not given), the inhibition is inactive: 7.39%.
The same measure for `CP(=O)(Nc1cccc(Br)c1)Oc1ccccc1` (stereo not given): inactive: 4.07%; for `COc1ccccc1OP(C)(=O)Nc1cccc(Br)c1` (stereo not given): inactive: 5.83%; for `CCOC(=O)c1ccc(NP(C)(=O)Oc2cc(C)cc(C)c2)cc1` (stereo not given): inactive: 0.62%.
For the molecule `Cc1cc(C)cc(OP(C)(=O)Nc2ccc(C)cc2C)c1` (stereo not given), the inhibition is inactive: 15.1%.
In the case of `CC1=NCCc2c1[nH]c1ccccc21.O=[N+]([O-])c1cc([N+](=O)[O-])c(O)c([N+](=O)[O-])c1`, the inhibition was inactive: 3.99%.
For `O=C(O)c1cccc(Nc2c([N+](=O)[O-])cc([N+](=O)[O-])cc2[N+](=O)[O-])c1`, the inhibition is inactive: 10.2%.
`COc1ccccc1OP(C)(=O)Nc1c(C)cccc1C` (stereo not given): the inhibition is inactive: 6.98%.
The value for `CN1CCCCC1COC(=O)C1(O)c2ccccc2CCc2ccccc21` (stereo not given) was inactive: -3.33%; that for `CCCOc1ccc(NP(C)(=O)Oc2ccc(Cl)cc2)cc1` (stereo not given) was inactive: 7.62%; that for `CP(=O)(Nc1ccc(SC(F)(F)F)cc1)Oc1ccccc1` (stereo not given) was inactive: -3.15%.
The value for `CC1=C2N=C(C=C3N=C(C(C)=C4[N-][C@@](C)([C@@H]5N=C1[C@](C)(CCC(=O)NC[C@@H](C)OP(=O)([O-])O[C@H]1[C@@H](O)[C@@H](n6cnc7cc(C)c(C)cc76)O[C@@H]1CO)[C@H]5CC(N)=O)[C@@](C)(CC(N)=O)[C@@H]4CCC(N)=O)[C@@](C)(CC(N)=O)[C@@H]3CCC(N)=O)C(C)(C)[C@@H]2CCC(N)=O.[C-]#N.[Co+3]` was active: 35.1%.
As for `O=[N+]([O-])c1cc([N+](=O)[O-])c(Nc2nnnn2CCO)c([N+](=O)[O-])c1`, the inhibition is inactive: 6.6%.
For `CCOC(=O)C(CC)C1=NC(C)(C)Cc2ccccc21.O=[N+]([O-])c1cc([N+](=O)[O-])c(O)c([N+](=O)[O-])c1` (stereo not given), the inhibition was inactive: 7.99%.
Take `O=[N+]([O-])c1cc([N+](=O)[O-])c(-c2cnn(-c3ccccc3)c2)c([N+](=O)[O-])c1`: the inhibition was inactive: 6.82%.
`Cc1nc2ccc3ccccc3c2s1.O=[N+]([O-])c1cc([N+](=O)[O-])c(O)c([N+](=O)[O-])c1`: the inhibition was inactive: 12.6%.
Turning to `O=[N+]([O-])c1cc([N+](=O)[O-])c(-n2nnc3ccccc32)c([N+](=O)[O-])c1`, the inhibition is inactive: 13%.
Regarding `CP(=O)(Nc1ccc2c(c1)OCCO2)Oc1ccccc1` (stereo not given), the inhibition was inactive: 6.58%.
As for `Cc1ccccc1NP(C)(=O)Nc1ccccc1C`, the inhibition is inactive: 5.76%.
Turning to `CP(=O)(Nc1ccc(SC(F)(F)F)cc1)Oc1ccc(F)cc1` (stereo not given), the inhibition was inactive: 5.75%.
The value for `CCOP(C)(=S)SCC(=O)NC(C)(CC)C(=O)O` (stereo not given) was inactive: -2.43%.
Take `O=[N+]([O-])c1ccc(OP2(=O)COCCO2)cc1` (stereo not given): the inhibition was inactive: 3.94%.
On to `Cc1cc(-c2cccc3ccccc23)c(C)cn1.O=[N+]([O-])c1cc([N+](=O)[O-])c(O)c([N+](=O)[O-])c1`, for which the inhibition was inactive: -0.9%.
For `O=[N+]([O-])c1cc([N+](=O)[O-])c(NCC2CCS(=O)(=O)C2)c([N+](=O)[O-])c1` (stereo not given), the inhibition is inactive: 0.12%.
The value for `Cc1c(C(c2ccc3c(c2)OCO3)c2c(C)n(C)n(-c3ccccc3)c2=O)c(=O)n(-c2ccccc2)n1C.O=[N+]([O-])c1cc([N+](=O)[O-])c(O)c([N+](=O)[O-])c1` was inactive: -2.42%; that for `COc1ccc(OP(C)(=O)Nc2cccc(Br)c2)cc1` (stereo not given) was inactive: -0.14%; that for `CN(C)CCOC(=O)C(O)(c1ccccc1)C1CCCCC1` (stereo not given) was inactive: 4.81%.
The value for `COc1ccc(NP(C)(=O)Oc2ccccc2OC)cc1` (stereo not given) was inactive: 5.69%.
On to `Cc1c([N+](=O)[O-])cc([N+](=O)[O-])c(Br)c1[N+](=O)[O-]`, for which the inhibition is inactive: -2.48%.
For the molecule `CCN(CC)CCCOC(=O)C(O)(c1ccccc1)C1CCCCC1` (stereo not given), the inhibition was inactive: -8.45%.
Take `CP(=O)(Nc1ccccc1)Oc1ccc(F)cc1` (stereo not given): the inhibition was inactive: 5.67%.
Take `O=[N+]([O-])c1cc([N+](=O)[O-])c(OC2CCCCC2O)c([N+](=O)[O-])c1` (stereo not given): the inhibition was inactive: 3.84%.

For the origin of these results see PubChem BioAssay AID492972 (The Scripps Research Institute Molecular Screening Center, 2010).
